The target of the experiment is T1, CYP26A1 (Homo sapiens, UniProt O43174).
T1 construct: microsomes of T47D human breast cancer cells that were pretreated for 16 h with 1 μM RA to induce RA metabolism; endogenous in cells; host or cells: T47D human breast cancer cells, pretreated with 1 μM RA for 16 h; microsomal fraction
T1 sequence (O43174 1-497): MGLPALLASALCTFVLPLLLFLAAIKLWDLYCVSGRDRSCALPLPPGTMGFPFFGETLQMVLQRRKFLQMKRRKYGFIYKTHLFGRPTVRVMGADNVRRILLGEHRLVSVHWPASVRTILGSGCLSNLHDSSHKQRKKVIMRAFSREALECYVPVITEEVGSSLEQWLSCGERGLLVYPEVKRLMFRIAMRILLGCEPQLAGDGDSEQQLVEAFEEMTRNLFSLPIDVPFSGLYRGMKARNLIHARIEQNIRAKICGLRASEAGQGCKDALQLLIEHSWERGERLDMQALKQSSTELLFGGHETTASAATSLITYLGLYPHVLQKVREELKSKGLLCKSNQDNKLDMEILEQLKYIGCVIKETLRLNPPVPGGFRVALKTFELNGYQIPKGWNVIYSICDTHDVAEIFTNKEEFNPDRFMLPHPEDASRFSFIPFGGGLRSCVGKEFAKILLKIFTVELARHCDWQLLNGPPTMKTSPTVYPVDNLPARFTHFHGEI
In words: RA 4-hydroxylase in T47D human breast cancer microsomes. Type of experiment: biochemical.

This note sets out measurements from article PMC2375285, “Inhibition of all-TRANS-retinoic acid metabolism by R116010 induces antitumour activity” (British Journal of Cancer, 2002).

In general, IC50 refers to the point on the concentration scale where inhibition reaches its midpoint.

Compound `Clc1cccc(C(c2ccc3[nH]cnc3c2)n2ccnc2)c1.Clc1cccc(C(c2ccc3[nH]cnc3c2)n2ccnc2)c1.O=C(O)/C=C/C(=O)O.O=C(O)/C=C/C(=O)O.O=C(O)/C=C/C(=O)O` (racemic) [liarozole-fumarate, ±-5-[(3-chlorophenyl)(1H-imidazole-1-yl)methyl]-1H-benzimidazole (E)-2-butenedioate (2:3), reference compound] returned an IC50 of 500 nM.
